Chains of the proteins cited; added tags and fusions are not shown. Residues count along the entry.
UniProt P56817, 46-501: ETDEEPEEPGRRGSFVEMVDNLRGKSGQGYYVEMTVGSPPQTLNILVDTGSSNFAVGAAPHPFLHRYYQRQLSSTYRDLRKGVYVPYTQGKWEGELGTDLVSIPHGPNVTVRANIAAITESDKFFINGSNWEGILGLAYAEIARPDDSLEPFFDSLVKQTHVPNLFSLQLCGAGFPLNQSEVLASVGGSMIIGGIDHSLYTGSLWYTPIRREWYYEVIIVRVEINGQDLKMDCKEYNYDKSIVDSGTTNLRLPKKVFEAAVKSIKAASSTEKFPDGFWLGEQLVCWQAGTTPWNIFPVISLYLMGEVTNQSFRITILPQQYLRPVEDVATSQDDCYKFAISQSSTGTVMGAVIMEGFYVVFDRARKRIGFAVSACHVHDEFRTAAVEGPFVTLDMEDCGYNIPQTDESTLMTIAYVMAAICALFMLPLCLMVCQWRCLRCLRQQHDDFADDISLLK

In patent publication US8957083B2, “Spiro-amino-imidazolone and spiro-amino-dihydro-pyrimidinone compounds as beta-secretase modulators and methods of use” (Amgen Inc., priority 2010, dated 2015):

Target: BACE 1 (Beta Secretase enzyme) (Homo sapiens (Human), UniProt P56817)
Experiment: In vitro enzymatic BACE FRET assay
Assay type: biochemical
Details: average IC50; enzyme 0.2 nM, FRET substrate 50 nM, pH 4.2
Method: In Vitro Enzymatic BACE FRET (Fluorescence Resonance Energy Transfer) Assay (Enzyme Assay Data in the Example Table I)
The assay buffer used in this screen is 0.05 M acetate, pH 4.2, 10% DMSO final, 100 uM genapol (which is a nonionic detergent, below its Critical Micelle Concentration). […] This assay is effectively started by the addition of FRET substrate (50 nM) and the combination is incubated for one hour. The FRET assay is terminated with by addition of Tris buffer, which raises the pH to neutrality, and the fluorescence is determined. The FRET substrate is a peptide with commercially available fluorophore and quencher, on opposite sides of the BACE cleavage site. Proteolytic cleavage of the FRET substrate releases quenching of fluorescence (excitation […] and […]).

CN1C(=O)C[C@@]2(N=C1N)c1cc(-c3cccnc3F)ccc1Oc1cnc(-c3ccnc(F)c3)cc12 [Example 21-A, (R)-7-(2-Fluoropyridin-3-yl)-3-(2-fluoropyridin-4-yl)-2′-imino-1′-methyl-2′,3′-dihydro-1′H-spiro[chromeno[2,3-c]pyridine-5,4′-pyrimidin]-6′(5′H)-one]
IC50: 437 nM
